Drawing on ChEMBL document CHEMBL3124844 (J Med Chem, 2014), this text covers inhibition for three compounds.

Experiment [1] concerns the target Sodium-dependent serotonin transporter (Rattus norvegicus) (UniProt P31652). Put plainly: Displacement of [3H]citalopram from Sprague-Dawley rat brain SERT at 100 uM after 60 mins by liquid scintillation counting analysis relative to control. It is filed as tissue-based. In general terms: Displacement assays read how much labelled ligand stays bound in the presence of the test substance.

The species entered for another experiment is Rattus norvegicus. The experiment can be described thus: Displacement of [3H]nisoxetine from Sprague-Dawley rat brain NET at 100 uM after 180 mins by liquid scintillation counting analysis relative to control. It is filed as tissue-based.
The subject of experiment [2] is Sodium-dependent serotonin transporter (Homo sapiens), P31645 [T497A]. As to conditions: COS-7, 100 uM.

On to `O=C(CSC(c1ccc(Cl)cc1)c1ccc(Cl)cc1)NCCCc1ccccc1`, for which the inhibition (in experiment [1]; in the experiment filed under Rattus norvegicus) was under 50% in each case.
Consider `O=C(CSC(c1ccccc1)c1ccccc1)NCCCc1ccccc1`, for which the inhibition (in experiment [1]; in the experiment filed under Rattus norvegicus) was under 50% each time.
Take `CNC(=O)CSC(c1ccccc1)c1ccccc1`: the inhibition in experiment [1] and in experiment [2] was under 50% throughout.

The term inhibition denotes the share of the control response that was lost under treatment. Lower therefore signals a response near the control.
